Values of other authors in patent publication US20260169011A1, “METHODS AND COMPOSITIONS FOR PROVIDING CUSTOMIZED NUTRITIONAL SUPPLEMENTS” (Vibrant Holdings LLC, priority 2023, published 2026).
Where two headings read alike, the source gives them in different places.

Conditions: cited from earlier work

Measured: UTL

Vitamin E
1,100 IU/day: Table 18, person one | Table 19, person two | upper tolerable limit
